Source: patent US20140303188A1, “Substituted Cyclopenta Pyrimidine Bicyclic Compounds Having Antitmitotic And/Or Antitumor Activity And Methods Of Use Thereof” (DUQUESNE UNIVERSITY OF THE HOLY SPIRIT, priority 2008, published 2014)

System: colchicine site on tubulin
Experiment: inhibition of [3H]colchicine binding to tubulin
Conditions: 5 μM inhibitor
Protocol: The effects of designed compounds 10-14 on the polymerization of purified tubulin were evaluated. This allows for the study of the direct interaction of the compounds with their intracellular target. The ability of these compounds to bind to the colchicine site on tubulin was evaluated by measuring inhibition of [^3H]colchicine binding to tubulin. […] It is clear that at 1 and 5 μM concentrations, 13 inhibited the binding of [^3H]colchicine, somewhat more potently than CA4. It is therefore likely that 13 binds in the colchicine site.

SMILES: COc1ccc(/C=C\c2cc(OC)c(OC)c(OC)c2)cc1O [CA4, combretastatin A-4, reference compound]
- Inhibition of colchicine binding % Inhibition ± SD: 99 ± 0.6%
